According to patent publication US8703768B2, “Nitrogen containing heteroaryl compounds” (Hoffmann-La Roche Inc., priority 2010, dated 2014):
pIC50: −log10 of the molar value.

Sequences of proteins named here, by UniProt entry; tags and fusion partners are left off. A line that says so, or that is headed by a name, gives the form on record, which may keep a tag or linker.
UniProt Q9Y233, other isoform, or with tags, fused parts or gaps: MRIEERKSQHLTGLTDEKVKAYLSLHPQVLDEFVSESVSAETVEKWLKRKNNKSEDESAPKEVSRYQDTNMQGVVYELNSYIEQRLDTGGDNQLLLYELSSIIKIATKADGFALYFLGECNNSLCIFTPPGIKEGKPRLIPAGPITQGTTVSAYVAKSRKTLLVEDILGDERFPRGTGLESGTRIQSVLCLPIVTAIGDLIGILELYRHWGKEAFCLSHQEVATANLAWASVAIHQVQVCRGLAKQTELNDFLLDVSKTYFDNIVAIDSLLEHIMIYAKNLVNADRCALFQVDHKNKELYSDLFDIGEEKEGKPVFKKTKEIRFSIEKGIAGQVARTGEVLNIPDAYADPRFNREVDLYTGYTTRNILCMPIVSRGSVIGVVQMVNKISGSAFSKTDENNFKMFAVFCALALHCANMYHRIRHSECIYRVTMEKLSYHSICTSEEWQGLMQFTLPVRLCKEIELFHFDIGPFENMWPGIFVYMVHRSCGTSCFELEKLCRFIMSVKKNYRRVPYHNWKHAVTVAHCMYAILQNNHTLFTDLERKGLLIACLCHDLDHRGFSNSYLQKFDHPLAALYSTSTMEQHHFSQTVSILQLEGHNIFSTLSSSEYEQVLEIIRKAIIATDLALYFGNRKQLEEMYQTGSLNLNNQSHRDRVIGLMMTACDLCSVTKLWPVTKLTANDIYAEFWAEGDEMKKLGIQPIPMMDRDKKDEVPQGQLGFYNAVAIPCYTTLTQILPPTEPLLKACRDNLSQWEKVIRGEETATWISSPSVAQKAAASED

Molecular target: human PDE10A (Homo sapiens (Human), UniProt Q9Y233)
Assay: human PDE10A full length Scintillation Proximity Assay (SPA)
Assay type: biochemical
Conditions: 50 nM cGMP and 50 nM [3H]-cGMP, 20 minutes at room temperature; read-out: PDE10A inhibition IC50
Experimental: The following test was carried out in order to determine the activity of the compounds of the present invention.
The human PDE10A full length assay was performed in 96-well micro titer plates. […] Non-specific activity was tested without the enzyme. The reaction was initiated by the addition of the substrate solution (cGMP and [^3H]-cGMP) and allowed to progress for 20 minutes at room temperature. The reaction was terminated by adding 25 μl of YSi-SPA scintillation beads (GE Healthcare, cat. # RPNQ0150) in 18 mM zinc sulphate solution (stop reagent). After 1 h under shaking, the plate was centrifuged one minute at 170 g to allow beads to settle. Afterwards, radioactive counts were measured on a Perkin Elmer TopCount Scintillation plate reader.

Row | pIC50 | SMILES
1 | 8.09 | Cn1cc(NC(=O)c2nc(C3CC3)ccc2Nc2cncnc2)c(C(=O)NCCO)n1 [Example 39, 6-Cyclopropyl-3-(pyrimidin-5-ylamino)-pyridine-2-carboxylic acid [3-(2-hydroxy-ethylcarbamoyl)-1-methyl-1H-pyrazol-4-yl]-amide]
2 | 8.09 | Cn1cc(NC(=O)c2nc(C3CC3)ccc2Nc2cncnc2)c(C(=O)N2CCCC2(C)C)n1 [Example 52, 6-Cyclopropyl-3-(pyrimidin-5-ylamino)-pyridine-2-carboxylic acid [3-(2,2-dimethyl-pyrrolidine-1-carbonyl)-1-methyl-1H-pyrazol-4-yl]-amide]
3 | 6.24 | O=C(Nc1cnccc1C(=O)N1CC2(COC2)C1)c1nc(C2CC2)ccc1Nc1cncnc1 [Example 88, 6-Cyclopropyl-3-(pyrimidin-5-ylamino)-pyridine-2-carboxylic acid [4-(2-oxa-6-aza-spiro[3.3]heptane-6-carbonyl)-pyridin-3-yl]-amide]
4 | 7.95 | CNC(=O)c1nn(C)cc1NC(=O)c1nc(CC(C)C)cnc1Nc1cncnc1 [Example 104, 6-Isobutyl-N-(1-methyl-3-(methylcarbamoyl)-1H-pyrazol-4-yl)-3-(pyrimidin-5-ylamino)pyrazine-2-carboxamide]
5 | 8.46 | Cn1ncc(NC(=O)c2nc(C3CC3)cnc2Nc2cncnc2)c1C(=O)NC1CCOC1 (centres unmarked) [Example 141, 6-Cyclopropyl-3-(pyrimidin-5-ylamino)-pyrazine-2-carboxylic acid [1-methyl-5-(tetrahydro-furan-3-ylcarbamoyl)-1H-pyrazol-4-yl]-amide]
6 | 7.95 | CNC(=O)c1c(NC(=O)c2nc(C3CC3)cnc2Nc2cccnc2)cnn1C [Example 217, 6-Cyclopropyl-3-(pyridin-3-ylamino)-pyrazine-2-carboxylic acid (1-methyl-5-methylcarbamoyl-1H-pyrazol-4-yl)-amide]
7 | 8.46 | Cn1ncc(NC(=O)c2nc(C3CC3)cnc2Nc2cncnc2)c1C(=O)N[C@@H]1CCOC1 [Example 280, 6-Cyclopropyl-3-(pyrimidin-5-ylamino)-pyrazine-2-carboxylic acid {1-methyl-5-[(R)-(tetrahydro-furan-3-yl)carbamoyl]-1H-pyrazol-4-yl}-amide]
8 | 8.01 | CC(C)(O)CNC(=O)c1c(F)cccc1NC(=O)c1nc(C2CC2)cnc1Nc1cncnc1 [Example 310, 6-Cyclopropyl-3-(pyrimidin-5-ylamino)-pyrazine-2-carboxylic acid [3-fluoro-2-(2-hydroxy-2-methyl-propylcarbamoyl)-phenyl]-amide]
